The text below walks through data of ChEMBL document CHEMBL3132836, “Structure-based drug design of chromone antagonists of the adenosine A2A receptor” (Medchemcomm, 2014).

The assay deals with CHO. As to the kind of experiment: Selectivity ratio of Ki for human adenosine A1 receptor expressed in CHO cells to Ki for human adenosine A2A receptor expressed in HEK293 cells. In kind it is cell-based.

Some results are limits rather than exact numbers.

As to `CCOc1cc2occ(-c3nc(C)cs3)c(=O)c2cc1CC`, the Ratio Ki is above 100.
